# In patent publication US6426331B1, “Inhibitors of STAT function” (Tularik Inc., priority 1998, dated 2002):
# Amino acid sequences for entries named in this document (tags omitted).
# UniProt P42226, whole entry: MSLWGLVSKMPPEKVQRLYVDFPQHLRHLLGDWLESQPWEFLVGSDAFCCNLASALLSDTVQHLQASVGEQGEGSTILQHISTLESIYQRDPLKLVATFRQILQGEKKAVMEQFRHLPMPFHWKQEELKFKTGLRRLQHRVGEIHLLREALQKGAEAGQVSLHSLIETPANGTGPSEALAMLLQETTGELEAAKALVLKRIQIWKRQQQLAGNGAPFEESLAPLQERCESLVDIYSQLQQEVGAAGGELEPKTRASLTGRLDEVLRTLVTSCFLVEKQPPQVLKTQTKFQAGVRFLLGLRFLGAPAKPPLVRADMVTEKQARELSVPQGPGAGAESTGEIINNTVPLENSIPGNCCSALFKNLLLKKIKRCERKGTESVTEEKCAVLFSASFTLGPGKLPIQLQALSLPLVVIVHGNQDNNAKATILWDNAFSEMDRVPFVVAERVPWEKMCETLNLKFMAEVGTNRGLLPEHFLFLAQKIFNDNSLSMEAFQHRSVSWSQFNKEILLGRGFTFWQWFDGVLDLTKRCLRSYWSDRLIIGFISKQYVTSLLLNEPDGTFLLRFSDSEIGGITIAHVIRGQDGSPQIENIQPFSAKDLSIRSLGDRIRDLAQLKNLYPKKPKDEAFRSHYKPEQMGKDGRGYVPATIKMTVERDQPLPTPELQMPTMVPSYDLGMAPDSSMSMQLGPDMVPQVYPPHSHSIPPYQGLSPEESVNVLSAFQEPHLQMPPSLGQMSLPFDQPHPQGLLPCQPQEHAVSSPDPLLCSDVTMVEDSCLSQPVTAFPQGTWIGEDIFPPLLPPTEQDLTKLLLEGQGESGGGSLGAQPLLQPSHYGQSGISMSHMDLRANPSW
# Target: STAT6 (Homo sapiens, UniProt P42226)
# Experiment: Inhibition of STAT6 binding (duplex formation)
# Settings: Table 5
# Description: The compounds of the present invention can be evaluated for STAT binding activity using methods such as those described in U.S. Pat. No. 6,207,391 (for STAT6 binding). Other assays for STAT binding can be found in, for example, U.S. Pat. Nos. 5,618,693, 5,639,858 and 5,756,700.
# Using methods similar to those described in Examples 1 and 2, the compounds provided in Table 1 were prepared and evaluated as inhibitors of STAT6 binding (duplex formation). The assay is described in U.S. Pat. No. 6,207,391, filed Mar. 31, 1998. In each of the tables below: a + symbol indicates and IC50 of >100 μM; a ++ symbol indicates and IC50 of 50-100 μM; a +++ symbol indicates and IC50 of 1-50 μM; and a ++++ symbol indicates and IC50 of <1.0 μM.
structure (smiles),measurement,value
CC(C)(C)[C@H](NC(=O)/C=C/c1ccc(OP(=O)(O)O)cc1)C(=O)N1CCC[C@H]1C(=O)N(Cc1ccccc1)Cc1ccccc1,IC50,< 1000 nM
